System: 4T1-luciferase tumor
Test: 4T1-luciferase tumor model: IR with compound 1, cGAMP and/or anti-CTLA-4; tumor volume and survival
Format: in vivo, Balb/c mice
[1] = 20 Gy IR + compound 1 in addition to cGAMP, intratumoral

## COc1cc2ncnc(N3CCC(CCP(=O)(O)O)CC3)c2cc1OC [compound 1]
20 Gy IR + compound 1 (100 μL of 100 μM intratumoral, day 2, 4, 7)
  tumor shrinkage: enhanced tumor shrinkage effects of IR treatment, although not significantly
[1]
  survival: prolonged survival
  tumor shrinkage: synergistically shrunk tumors
IR pretreatment with compound 1 and anti-CTLA-4
  anti-tumor effect (survival): significant synergistic effects
Without IR, anti-CTLA-4 and compound 1 (1 mM intratumoral)
  survival: no effect on prolonging survival

From patent US20240374724A1, “ENPP1 INHIBITORS AND IMMUNE CELLS EXPRESSING CHIMERIC ANTIGEN RECEPTORS” (Angarus Therapeutics, Inc., priority 2021, published 2024)
